# Earlier results as cited in patent US20260132160A1, “IRON REPLACEMENT TREATMENTS” (The General Hospital Corporation, priority 2022, published 2026).
# Details: serum Zn^2+ speciation; cited from earlier work
substance,measurement,value
"albumin: serum albumin, predominant binder of serum Zn^2+",log KML PH 7.4 of Zn bound to albumin,7.0
